From ChEMBL document CHEMBL3259739, “Synthesis and structure-activity relationship of trisubstituted thiazoles as Cdc7 kinase inhibitors” (Eur J Med Chem, 2014)

By UniProt entry, the sequences of proteins in these tests, tags left out. Where a name states a change or a piece, a line headed by the entry shows the natural chain unless it says otherwise.
UniProt Q9UBU7: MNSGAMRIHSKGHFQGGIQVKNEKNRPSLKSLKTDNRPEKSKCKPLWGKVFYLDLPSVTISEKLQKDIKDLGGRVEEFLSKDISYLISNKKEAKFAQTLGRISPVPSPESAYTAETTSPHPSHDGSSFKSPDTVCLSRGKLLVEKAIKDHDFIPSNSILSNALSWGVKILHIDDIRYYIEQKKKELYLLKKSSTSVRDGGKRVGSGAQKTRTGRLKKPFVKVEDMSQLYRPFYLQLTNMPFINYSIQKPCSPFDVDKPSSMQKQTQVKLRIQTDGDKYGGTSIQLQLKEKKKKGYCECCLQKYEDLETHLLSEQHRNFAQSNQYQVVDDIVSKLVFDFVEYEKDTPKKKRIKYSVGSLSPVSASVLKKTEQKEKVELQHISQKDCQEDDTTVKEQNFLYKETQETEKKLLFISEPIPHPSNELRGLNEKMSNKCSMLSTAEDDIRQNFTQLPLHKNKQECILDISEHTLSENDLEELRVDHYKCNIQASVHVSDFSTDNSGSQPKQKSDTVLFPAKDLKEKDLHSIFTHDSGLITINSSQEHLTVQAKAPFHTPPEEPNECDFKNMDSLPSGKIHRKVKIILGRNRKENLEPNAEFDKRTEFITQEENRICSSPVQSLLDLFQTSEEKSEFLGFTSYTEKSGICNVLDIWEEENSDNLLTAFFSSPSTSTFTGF
UniProt O00311: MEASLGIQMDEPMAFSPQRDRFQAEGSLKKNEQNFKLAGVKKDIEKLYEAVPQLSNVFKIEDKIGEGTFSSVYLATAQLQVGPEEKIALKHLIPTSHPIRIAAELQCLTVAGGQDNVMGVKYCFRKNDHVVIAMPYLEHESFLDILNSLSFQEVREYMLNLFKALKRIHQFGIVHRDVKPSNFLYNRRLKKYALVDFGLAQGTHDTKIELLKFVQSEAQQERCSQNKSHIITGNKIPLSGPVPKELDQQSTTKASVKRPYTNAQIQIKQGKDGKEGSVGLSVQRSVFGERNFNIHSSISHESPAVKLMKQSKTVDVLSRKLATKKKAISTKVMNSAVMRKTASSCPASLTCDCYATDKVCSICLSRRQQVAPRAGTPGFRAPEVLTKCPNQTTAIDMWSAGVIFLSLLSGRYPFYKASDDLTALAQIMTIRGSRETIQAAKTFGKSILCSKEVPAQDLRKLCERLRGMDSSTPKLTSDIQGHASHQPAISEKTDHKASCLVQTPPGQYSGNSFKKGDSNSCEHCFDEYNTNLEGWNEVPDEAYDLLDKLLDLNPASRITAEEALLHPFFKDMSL

Target: CDC7/DBF4 (Cell division cycle 7-related protein kinase/Activator of S phase kinase) (Homo sapiens) (UniProt Q9UBU7+O00311)
Test: Ratio of IC50 for Cdc7/Dbf4 in human HCT116 cells to IC50 for Cdc7/Dbf4 (unknown origin)
Format: cell-based
Settings: HCT-116

## NC(=O)c1sc(-c2ccnc(N)n2)nc1-c1ccc(Cl)cc1Cl
  Ratio IC50: > 30
